Only a part is listed here, and it is no random draw. Results filed as inconclusive are left out. Activity calls are given as the source filed them. The call rests on the fitted dose curve; in most records, active means well fitted inhibition curve with a large enough effect; inconclusive means small, poorly fitted or top-dose-only effect; inactive means no such curve, though single readings can be large or run the other way.
On the % scale 0 is the no-effect control and ±100 the full control effect.

By UniProt entry, the sequences of proteins in these tests, tags left out. Where a name states a change or a piece, a line headed by the entry shows the natural chain unless it says otherwise.
UniProt Q9Y468: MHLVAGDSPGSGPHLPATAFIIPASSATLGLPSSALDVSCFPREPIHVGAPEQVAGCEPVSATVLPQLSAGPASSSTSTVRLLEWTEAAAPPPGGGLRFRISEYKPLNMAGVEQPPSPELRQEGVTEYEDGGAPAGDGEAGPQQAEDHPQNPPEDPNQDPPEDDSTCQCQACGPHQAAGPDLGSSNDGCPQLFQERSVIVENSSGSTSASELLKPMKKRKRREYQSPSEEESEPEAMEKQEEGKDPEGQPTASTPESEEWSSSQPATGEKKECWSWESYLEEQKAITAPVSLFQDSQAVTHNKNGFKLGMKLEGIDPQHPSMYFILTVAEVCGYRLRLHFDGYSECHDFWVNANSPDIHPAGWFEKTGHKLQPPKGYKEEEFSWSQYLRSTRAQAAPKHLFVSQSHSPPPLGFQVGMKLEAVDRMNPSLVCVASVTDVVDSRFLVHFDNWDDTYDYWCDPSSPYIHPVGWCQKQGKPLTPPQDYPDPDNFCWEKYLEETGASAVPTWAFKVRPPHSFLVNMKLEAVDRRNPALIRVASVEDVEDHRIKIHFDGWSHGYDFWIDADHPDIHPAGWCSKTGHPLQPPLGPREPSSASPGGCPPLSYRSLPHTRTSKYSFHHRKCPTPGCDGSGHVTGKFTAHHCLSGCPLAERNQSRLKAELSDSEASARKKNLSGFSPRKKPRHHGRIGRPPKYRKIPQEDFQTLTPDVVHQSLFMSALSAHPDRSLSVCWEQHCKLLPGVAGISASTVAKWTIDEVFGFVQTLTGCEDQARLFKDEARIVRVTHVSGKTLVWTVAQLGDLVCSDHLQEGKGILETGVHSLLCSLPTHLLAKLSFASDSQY

The experiment concerns the target Lethal(3)malignant brain tumor-like protein 1 (Homo sapiens) (UniProt Q9Y468). In words: qHTS Assay for the Inhibitors of L3MBTL1. Further: nearly all actives have a fitted effect of over 60% in size. To be noted: AlphaScreen L3MBTL1–H3K9me1 peptide binding; series mostly up to 57.1 µM; activity, negative = inhibition: at the top concentration. In general terms: qHTS replaces the single test concentration by a dilution series.
Take `CCOP1(=S)c2c(C)nn(CCC#N)c2N=C(c2ccccc2F)N1C` (stereo not given): the “activity, negative = inhibition” value was inactive: -1.3%. The value for `O=P(Nc1nccs1)(c1ccccc1)c1nc2ccccc2s1` (stereo not given) was inactive: 5.93%. The value for `CS(=O)(=O)c1cc([N+](=O)[O-])c2no[n+]([O-])c2c1` was inactive: -12%; that for `O=C(O)COc1ccc([As](=O)(O)O)cc1[N+](=O)[O-]` was inactive: 17.1%. The value for `Nc1ccccc1[As](=O)(O)c1ccccc1` was inactive: -2.34%; that for `N#CCCN(C(=O)COC(=O)C(O)(c1ccccc1)c1ccccc1)c1ccc(F)cc1` was inactive: -1.67%; that for `CCOP1(=S)c2c(C)nn(CCC#N)c2N=C(c2ccc(F)cc2)N1C` (stereo not given) was inactive: -1.63%. On to `O=C(OC1CN2CCC1CC2)c1ccc(Cl)cc1` (stereo not given), for which the “activity, negative = inhibition” value is inactive: 8.07%. Turning to `O=[As](O)(O)c1cccnc1`, the “activity, negative = inhibition” value was inactive: -0.233%.

On to `O=[As](O)(c1cccc(O)c1)c1cccc(O)c1`, for which the “activity, negative = inhibition” value is inactive: -4.92%.

Take `Nc1cccc2c([As](=O)(O)O)cccc12`: the “activity, negative = inhibition” value was inactive: -17%. Turning to `COc1cc(C2NCCC3(OCCO3)C2(C)C)cc(OC)c1OC` (stereo not given), the “activity, negative = inhibition” value was inactive: 4.29%. Then `CCOP(=O)(Nc1cccc2ccccc12)OCC`, with inactive: 3.21%; and `CCC1=CC2Cc3nc4ccc(Cl)cc4c(N)c3C(C1)C2` (stereo not given), with inactive: 0.552% [at 2.29 µM]; and `Clc1n[nH]nc1-c1nn[nH][15n]1`, with inactive: -2.67%. Then `CC(C)(C)C(=O)NC(Sc1ncccn1)C(Cl)(Cl)Cl` (stereo not given), with inactive: 9.65%; and `COc1ccccc1CNC(=O)COC(=O)C(O)(c1ccccc1)c1ccccc1`, with inactive: 2.42%; and `CC(C)/C=N\N=C(\N)N[N+](=O)[O-]`, with inactive: 4.8%. Then `O=[As](O)(c1ccccc1Br)c1ccccc1Br`, with inactive: 3.01%; and `Cc1nn(-c2ccccc2)c2c1P(=O)(N1CCOCC1)N(C)C(c1ccccc1)=N2` (stereo not given), with inactive: -2.82%; and `CC1CCC(C(C)C)C(OP(=O)(Nc2ccccn2)c2ccccc2)C1` (stereo not given), with inactive: -22.3%. On to `O=C(/C=C/c1ccccc1)OC1CN2CCC1CC2` (stereo not given), for which the “activity, negative = inhibition” value was inactive: 6.58%. The value for `Nc1cccc([As](=O)(O)c2ccccc2)c1` was inactive: 4.34%; that for `Cc1ccc(OCC(=O)OC2CN3CCC2CC3)cc1` (stereo not given) was inactive: 0.338%; that for `NS(=O)(=O)c1cccc(NC(=O)COC(=O)C(O)(c2ccccc2)c2ccccc2)c1` was inactive: -1.76%.

Values taken from PubChem BioAssay AID485360 (National Center for Advancing Translational Sciences (NCATS), 2010).
